Laboratory results reported in patent US9981916B2 (Genentech, Inc., priority 2013, dated 2018).

By UniProt entry, the sequences of proteins in these tests, tags left out. Residues count along the entry.
UniProt P51449, 269-508 limits assumed: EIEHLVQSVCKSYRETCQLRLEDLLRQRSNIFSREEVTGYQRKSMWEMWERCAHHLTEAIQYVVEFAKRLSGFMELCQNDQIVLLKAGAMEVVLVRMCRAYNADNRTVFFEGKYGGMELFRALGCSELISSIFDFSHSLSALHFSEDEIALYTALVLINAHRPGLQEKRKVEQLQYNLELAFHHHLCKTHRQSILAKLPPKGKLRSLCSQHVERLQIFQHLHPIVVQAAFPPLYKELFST

Target: RORc ligand binding domain (Homo sapiens, UniProt P51449)
Test: In vitro RORc ligand binding assay (25-[3H]hydroxycholesterol displacement, filter binding)
Details: read-out: RORc IC50; 6 nM 25-[3H]hydroxycholesterol, 0.6 ug/mL RORc receptor, 3 h at 25° C.
Procedure: Example 17: In Vitro RORc Ligand Binding Assay
This assay was used to determine a compound's potency in inhibiting activity of RORc by determining, Kiapp, IC50, or percent inhibition values.
On day of the assay, 100 uL of 0.05% CHAPS (in deionized H2O) was added to all wells of the GFB Unifilter plate and allowed soak for 1 h. A wash buffer of 50 mM HEPES (pH 7.4), 150 mM NaCl, and 5 mM MgCl2 was prepared to wash the filter plate. To prepare an assay buffer, BSA was added to the wash buffer to reach 0.01% and DTT was added to reach 1 mM.
For IC50 mode, 10 mM compound stocks were serially diluted in DMSO with DMSO to give 20× required final concentration in DMSO (15 uL compound+30 uL DMSO). The 20× compound stocks were diluted in DMSO with Assay Buffer 4-fold to reach 5× the final test concentration in 25% DMSO (10 uL compound+30 uL Assay Buffer). Solutions were mixed by aspiration several times with a pipette set on 50 uL volume. For the assay, 10 uL of 5× compound stock solutions in 25% DMSO were added to the assay plate in duplicate. […]
Using a Packard Filtermate Harvester, the filter plate were washed 4 times following transfer of the incubated samples. […] 50 uL Microscint 0 was added to all wells and read on Topcount protocol Inverted. […]

## CC1(C)C2CCC1(C(=O)N1CCC(F)C1)c1nnc(-c3c(F)cccc3F)cc12 (stereo not shown)
  IC50: 47.6 nM
